Literature values, collected in patent publication US20230111504A1, “COR[…] AND AVERMECTINS” (Huvepharma EOOD, priority 2020, published 2023).

Sequences of proteins named here, by UniProt entry; tags and fusion partners are left off.
UniProt P05177, whole entry: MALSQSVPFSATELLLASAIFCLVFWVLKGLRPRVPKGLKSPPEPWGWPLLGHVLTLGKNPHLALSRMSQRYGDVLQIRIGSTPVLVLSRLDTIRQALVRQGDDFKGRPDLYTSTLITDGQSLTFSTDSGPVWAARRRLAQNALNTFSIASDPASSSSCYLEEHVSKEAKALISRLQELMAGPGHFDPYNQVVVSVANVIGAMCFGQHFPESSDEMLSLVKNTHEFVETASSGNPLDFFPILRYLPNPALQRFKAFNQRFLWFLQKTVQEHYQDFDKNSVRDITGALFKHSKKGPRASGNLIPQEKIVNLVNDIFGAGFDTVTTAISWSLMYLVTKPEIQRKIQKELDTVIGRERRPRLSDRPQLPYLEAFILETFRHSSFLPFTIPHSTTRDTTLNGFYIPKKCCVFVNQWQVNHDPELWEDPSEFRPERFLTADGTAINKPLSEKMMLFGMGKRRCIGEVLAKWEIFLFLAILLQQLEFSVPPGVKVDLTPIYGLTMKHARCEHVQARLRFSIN

Tests used:
CYP1A2 = target: T1, CYP1A2 (Homo sapiens, UniProt P05177); conditions: clinically relevant concentrations, human liver microsomes; cited from earlier work
T1 construct: from tissue; host or cells: human liver microsomes

CYP2D6 and CYP2E = conditions: compared to CYP3A4; depending on the in vitro method; cited from earlier work

## ivermectin
CYP1A2
  inhibition of metabolizing activity of CYP1A2: do not significantly inhibit
CYP2D6 and CYP2E
  involvement of CYP2D6 and CYP2E in metabolism: significantly lower extent
